Reference: US20230151052A1, “NEUROSTEROID COMPOUNDS AND METHODS FOR THEIR PREPARATION AND USE IN TREATING CENTRAL NERVOUS SYSTEM DISORDERS” (published 2023)
Converted amounts (≈) assume the structure as drawn.

Key:
[1] = Stability in buffer solution
[2] = Plasma pharmacokinetics after iv or im dose (plasma levels of 21-OH-GX); conditions: rat, 10 mg/kg; for Cmax values, order for the iv and im groups: 21-OH-GX in plasma
[3] = system: hippocampus kindling seizures; experiment: Hippocampus kindling model of epilepsy; conditions: s.c.
pilocarpine-induced SE = experiment: Pilocarpine status epilepticus model; conditions: s.c.
6-Hz limbic-seizures = experiment: 6-Hz model of acute seizures; conditions: s.c.; stimulation 15 minutes after dosing
[4] = system: DFP-induced neuronal injury and neurodegeneration; experiment: Neuroprotectant efficacy in the DFP model; conditions: im 40 min after DFP
GABA-A receptor = experiment: Whole-cell GABA-gated currents in acutely dissociated dentate gyrus granule cells (patch-clamp); conditions: antagonist at 10 µM
[5] = pH=7 phosphate buffer (synthesis text)
[6] = pH=7 phosphate buffer (table footnote)
[7] = after 24 h in pH=7 phosphate buffer
[8] = pH=7 phosphate buffer, room temperature
[9] = medium not stated (synthesis text)
[10] = after 23 h in PBS (pH=7) at room temperature
[11] = parent drugs table, BQL= below the quantification level

Molecule: C[C@@]1(O)CC[C@@]2(C)C(CC[C@@H]3C2CC[C@]2(C)[C@@H](C(=O)COC(=O)C4CCN(CC(O)CO)CC4)CC[C@@H]32)C1.Cl (stereo partly shown)
- Solubility (Aqueous solubility; [5]): 0.48 mg/mL
- Solubility (Aqueous solubility; [6]): 0.48 mg/mL
- Stability, remaining [1, 7]: 100%
- Stability (24 h), drug remaining in the buffer solution [1, 8]: 100%

Molecule: C[C@@]1(O)CC[C@@]2(C)C(CC[C@@H]3C2CC[C@]2(C)[C@@H](C(=O)COCP(=O)([O-])[O-])CC[C@@H]32)C1.[Na+].[Na+] (stereo partly shown)
- Solubility (Aqueous solubility; PBS pH=7.4 (synthesis text)): 7.3 mg/mL
- Solubility (Aqueous solubility; [6]): 7.3 mg/mL
- Stability ([1]; over 24 h in pH=7.4 PBS): no decomposition observed
- Stability (24 h), drug remaining in the buffer solution [1, 8]: 100%

Molecule: C[C@@]1(O)CC[C@@]2(C)C(CC[C@@H]3C2CC[C@]2(C)[C@@H](c4cc(COP(=O)([O-])[O-])on4)CC[C@@H]32)C1.[Na+].[Na+] (stereo partly shown)
- Solubility (Aqueous solubility; [9]): 4.3 mg/mL
- Solubility (Aqueous solubility; [6]): 5 mg/mL
- Stability, prodrug remaining [1, 10]: 98.3%
- Stability (24 h), drug remaining in the buffer solution [1, 8]: 100%

Molecule: (3-((3R,8R,10S,13S,14S,17S)-3-hydroxy-3,10,13-trimethylhexadecahydro-1H-cyclopenta[a]phenanthren-17-yl)isoxazol-5-yl)methyl L-lysinate bis-2-hydroxypropane-1,2,3-tricarboxylic acid
- Solubility (Aqueous solubility; [9]): 5.2 mg/mL
- Solubility (Aqueous solubility; [6]): 5.2 mg/mL
- Stability, prodrug remaining ([1]; after 24 h in PBS (pH=7)): 94.5%
- Stability (24 h), drug remaining in the buffer solution [1, 8]: 94.5%

Molecule: CC(C)[C@H](N)C(=O)OCc1cc([C@H]2CC[C@H]3[C@@H]4CCC5C[C@](C)(O)CC[C@]5(C)C4CC[C@]23C)no1.O=C(O)CC(O)(CC(=O)O)C(=O)O (stereo partly shown)
- Stability, remaining ([1]; after 24 h in PBS (pH=7.4)): 100%
- Stability (24 h), drug remaining in the buffer solution [1, 8]: 100%

Molecule: CC(C)[C@H](N)C(=O)OCC(=O)[C@H]1CC[C@H]2[C@@H]3CCC4C[C@](C)(O)CC[C@]4(C)C3CC[C@]12C.Cl (stereo partly shown)
- Cmax values, order for the iv and im groups [2]: 21-OH-GX > 21-OH-GX valine > 21-OH-GX lysine >21-OH-GX phosphate
- Anticonvulsant and protective ED50, Kindling model [3]: 3.3 mg/kg
- Solubility (Aqueous solubility; [5]): 2 mg/mL
- Solubility (Aqueous solubility; [6]): 2 mg/mL
- Anticonvulsant and protective ED50, Pilocarpine model (pilocarpine-induced SE): 6 mg/kg
- Anticonvulsant and protective ED50, 6-Hz model (6-Hz limbic-seizures): 2.6 mg/kg
- Stability, drug remaining in the buffer solution ([1]; pH=7 phosphate buffer, room temperature, 6 h): 75% (6 h)
- Neuroprotective profile compared with ganaxolone and midazolam, DFP model [4]: superior to the parent ganaxolone and the standard anticonvulsant midazolam

Molecule: CC(C)OC(=O)OCOP(=O)(COCc1cc([C@H]2CCC3C4CCC5C[C@](C)(O)CC[C@]5(C)C4CC[C@@]32C)no1)OCOC(=O)OC(C)C (stereo partly shown)
- Solubility (Aqueous solubility; [6]): 0.0066 mg/mL (≈ 9.25 µM)
- Solubility (Aqueous solubility; pH=7.4 buffer): 0.0066 mg/mL (≈ 9.25 µM)

Molecule: C[C@@]1(O)CC[C@@]2(C)C(CCC3C2CC[C@@]2(C)C3CC[C@@H]2c2cc(COCP(=O)(O)O)on2)C1 (stereo partly shown)
- Solubility (Aqueous solubility; [9]): 4.3 mg/mL (≈ 8930 µM)
- Stability, prodrug remaining [1, 10]: 98.3%

Molecule: C[C@@]1(O)CC[C@@]2(C)C(CC[C@@H]3C2CC[C@]2(C)[C@@H](C(=O)CO)CC[C@@H]32)C1 (stereo partly shown)
- Cmax values, order for the iv and im groups [2]: 21-OH-GX > 21-OH-GX valine > 21-OH-GX lysine >21-OH-GX phosphate
- Mean bioavailability administered im ([2]; im): about 96%
- Anticonvulsant and protective ED50, Kindling model [3]: 3.8 mg/kg
- Solubility (Aqueous solubility; [11]): <BQL*
- Anticonvulsant and protective ED50, Pilocarpine model (pilocarpine-induced SE): 6 mg/kg
- Anticonvulsant and protective ED50, 6-Hz model (6-Hz limbic-seizures): 2.6 mg/kg

Molecule: C[C@@]1(O)CC[C@@]2(C)C(CC[C@@H]3C2CC[C@]2(C)[C@@H](c4cc(CO)on4)CC[C@@H]32)C1 (stereo partly shown)
- Solubility (Aqueous solubility; [9]): < 0.001 mg/mL
- Solubility (Aqueous solubility; parent drugs table): <0.001 mg/mL

Molecule: COc1ccc(-c2ccc(=N)n(CCCC(=O)O)n2)cc1
- Blockade of whole-cell GABA-gated current potentiation by GX (GABA-A receptor): completely blocked

Molecule: C[C@@]1(O)CC[C@@]2(C)C(CC[C@@H]3C2CC[C@]2(C)[C@@H](C(=O)COC(=O)CCC(=O)[O-])CC[C@@H]32)C1.[Na+] (stereo partly shown)
- Anticonvulsant and protective ED50, Kindling model [3]: 3.5 mg/kg
- Solubility (Aqueous solubility; [9]): 0.96 mg/mL
- Solubility (Aqueous solubility; [6]): 0.96 mg/mL
- Anticonvulsant and protective ED50, Pilocarpine model (pilocarpine-induced SE): 6 mg/kg
- Anticonvulsant and protective ED50, 6-Hz model (6-Hz limbic-seizures): 2.1 mg/kg
- Stability, remaining [1, 7]: 98%
- Stability (24 h), drug remaining in the buffer solution [1, 8]: 98%

Molecule: CC(=O)[C@H]1CC[C@H]2[C@@H]3CCC4C[C@](C)(O)CC[C@]4(C)C3CC[C@]12C (stereo partly shown)
- Anticonvulsant and protective ED50, Kindling model [3]: 3.5 mg/kg
- Solubility (Aqueous solubility; [11]): <BQL*
- Anticonvulsant and protective ED50, Pilocarpine model (pilocarpine-induced SE): 6 mg/kg
- Anticonvulsant and protective ED50, 6-Hz model (6-Hz limbic-seizures): 2 mg/kg

Molecule: C[C@@]1(O)CC[C@@]2(C)C(CC[C@@H]3C2CC[C@]2(C)[C@@H](C(=O)COC(=O)CC(O)C(=O)O)CC[C@@H]32)C1 (stereo partly shown)
- Solubility (Aqueous solubility; PBS pH=7.4 (synthesis text)): 0.406 mg/mL (≈ 874 µM)
- Solubility (Aqueous solubility; [6]): 0.41 mg/mL (≈ 882 µM)
- Stability, remaining ([1]; after 24 h in PBS (pH=7.4)): 100%
- Stability (24 h), drug remaining in the buffer solution [1, 8]: 100%

Molecule: C[C@@]1(O)CC[C@@]2(C)C(CC[C@@H]3C2CC[C@]2(C)[C@@H](C(=O)COC(=O)NCCN4CCCCC4)CC[C@@H]32)C1 (stereo partly shown)
- Solubility (Aqueous solubility; PBS pH=7.4 (synthesis text)): 0.12 mg/mL (≈ 239 µM)
- Solubility (Aqueous solubility; pH=7.4): 118 µg/mL (pH=7.4)
- Stability ([1]; pH=6): Decomposition at pH=6 was visible, but not quantified

Molecule: C[C@@]1(O)CC[C@@]2(C)C(CC[C@@H]3C2CC[C@]2(C)[C@@H](C(=O)COP(=O)([O-])[O-])CC[C@@H]32)C1.[Na+].[Na+] (stereo partly shown)
- Cmax values, order for the iv and im groups [2]: 21-OH-GX > 21-OH-GX valine > 21-OH-GX lysine >21-OH-GX phosphate
- Anticonvulsant and protective ED50, Kindling model [3]: 3.5 mg/kg
- Solubility (Aqueous solubility; PBS pH=7.4 (synthesis text)): > 10 mg/mL
- Solubility (Aqueous solubility; [6]): >10 mg/mL
- Anticonvulsant and protective ED50, Pilocarpine model (pilocarpine-induced SE): 6 mg/kg
- Anticonvulsant and protective ED50, 6-Hz model (6-Hz limbic-seizures): 2.8 mg/kg
- Stability ([1]; at 26 h in PBS (pH=7.4)): No decomposition observed
- Stability (24 h), drug remaining in the buffer solution [1, 8]: 100%

Molecule: C[C@@]1(O)CC[C@@]2(C)C(CC[C@@H]3C2CC[C@]2(C)[C@@H](C(=O)COC(=O)C(N)CCCCN)CC[C@@H]32)C1 (stereo partly shown)
- Solubility (Aqueous solubility; [9]): 9.7 mg/mL (≈ 20300 µM)
- Stability, prodrug remaining ([1]; after 24 h in PBS (pH=7)): 75%
